Experimental data as given in ChEMBL document CHEMBL5316347, “Design, Synthesis, and Biological Evaluation of Bipyridazine Derivatives as Stimulator of Interferon Genes (STING) Receptor Agonists” (J Med Chem, 2023).

Chains of the proteins cited; added tags and fusions are not shown.
UniProt Q86WV6, whole entry R293Q: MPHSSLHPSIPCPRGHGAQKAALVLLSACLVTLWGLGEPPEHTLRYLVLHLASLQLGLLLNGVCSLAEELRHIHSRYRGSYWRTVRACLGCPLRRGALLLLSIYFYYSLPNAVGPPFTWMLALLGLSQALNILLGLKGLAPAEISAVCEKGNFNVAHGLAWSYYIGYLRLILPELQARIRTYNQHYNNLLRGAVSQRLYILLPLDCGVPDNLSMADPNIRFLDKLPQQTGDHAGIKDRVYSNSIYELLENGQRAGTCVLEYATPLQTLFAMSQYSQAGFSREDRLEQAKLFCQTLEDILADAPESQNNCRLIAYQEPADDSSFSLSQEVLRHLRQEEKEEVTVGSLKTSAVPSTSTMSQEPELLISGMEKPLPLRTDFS
UniProt Q86WV6, whole entry, looked up, stated change not applied: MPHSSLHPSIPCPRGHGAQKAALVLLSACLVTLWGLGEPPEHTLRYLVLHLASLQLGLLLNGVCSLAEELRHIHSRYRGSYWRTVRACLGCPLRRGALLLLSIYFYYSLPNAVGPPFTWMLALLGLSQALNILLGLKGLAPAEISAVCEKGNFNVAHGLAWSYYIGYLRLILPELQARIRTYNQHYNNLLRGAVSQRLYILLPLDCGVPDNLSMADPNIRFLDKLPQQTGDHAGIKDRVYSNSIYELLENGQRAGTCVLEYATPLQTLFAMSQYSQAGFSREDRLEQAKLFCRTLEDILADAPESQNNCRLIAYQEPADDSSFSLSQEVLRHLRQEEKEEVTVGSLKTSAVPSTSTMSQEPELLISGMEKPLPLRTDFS
UniProt Q86WV6, whole entry G230A/R293Q: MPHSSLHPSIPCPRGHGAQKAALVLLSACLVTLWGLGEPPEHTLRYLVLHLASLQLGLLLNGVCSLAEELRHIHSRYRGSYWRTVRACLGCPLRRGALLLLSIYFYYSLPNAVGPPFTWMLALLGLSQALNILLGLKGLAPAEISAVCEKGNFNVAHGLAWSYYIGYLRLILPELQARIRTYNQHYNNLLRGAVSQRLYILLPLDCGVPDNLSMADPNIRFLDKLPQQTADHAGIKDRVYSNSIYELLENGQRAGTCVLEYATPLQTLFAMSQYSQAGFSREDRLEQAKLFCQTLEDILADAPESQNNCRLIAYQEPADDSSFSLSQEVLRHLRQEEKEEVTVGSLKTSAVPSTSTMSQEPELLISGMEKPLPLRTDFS

Experiments:
[1] = tested on: Stimulator of interferon genes protein (Homo sapiens), Q86WV6 [R293Q]; details: filed as agonist, dose 50.0 µM
[2] = tested on: Stimulator of interferon genes protein (Homo sapiens), Q86WV6 [UNDEFINED MUTATION]; details: filed as agonist, dose 50.0 µM
[3] = target: T1, Stimulator of interferon genes protein (Mus musculus, UniProt Q3TBT3); assay: Agonist activity at mouse STING in mouse RAW-Lucia ISG cells incubated for 24 hrs in presence of PMA by luciferase reporter assay; format: cell-based
T1 sequence (Q3TBT3 whole entry): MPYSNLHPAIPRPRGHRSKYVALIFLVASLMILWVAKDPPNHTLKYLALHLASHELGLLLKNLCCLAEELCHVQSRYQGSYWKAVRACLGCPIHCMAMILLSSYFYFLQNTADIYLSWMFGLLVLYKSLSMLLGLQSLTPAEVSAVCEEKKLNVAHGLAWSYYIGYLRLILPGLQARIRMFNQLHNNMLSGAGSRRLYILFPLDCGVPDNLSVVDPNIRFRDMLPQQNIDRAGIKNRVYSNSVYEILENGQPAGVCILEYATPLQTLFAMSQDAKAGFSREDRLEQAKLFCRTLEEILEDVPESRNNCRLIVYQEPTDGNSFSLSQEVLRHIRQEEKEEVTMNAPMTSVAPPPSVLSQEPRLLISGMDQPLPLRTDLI

[4] = tested on: Stimulator of interferon genes protein (Homo sapiens), Q86WV6 [G230A,R293Q]; details: filed as agonist, dose 50.0 µM
[5] = target: Stimulator of interferon genes protein (Homo sapiens, UniProt Q86WV6); details: filed as agonist, dose 50.0 µM

SMILES: O=C(Nc1cc(F)c(F)cc1C(=O)O)c1ccc(-n2ccnc2)nn1
- ΔTm [1]: 6 °C
- ΔTm [2]: 8.5 °C
- pEC50 [3]: 3.87
- ΔTm [4]: 13.5 °C
- ΔTm [5]: 6 °C

pEC50: −log10 of the molar value.
